Common to all, as to type: in vitro ADME
One series concerns CYP2C19 mRNA. The series is described as follows: CYP mRNA level in cultured human hepatocytes, CYP2C19. The note with it: 10 nM, 72 hours, mean ± SD of three donors.
The next series concerns CYP2C8 mRNA. The series is described as follows: CYP mRNA level in cultured human hepatocytes, CYP2C8. The note with it: 72 hours, mean ± SD of three donors.
The subject of another series is CYP3A activity. The series is described as follows: CYP enzyme activity in cultured human hepatocytes, CYP3A4. The note with it: 0.3 nM, 72 hours, mean ± SD of three donors.

Consider one compound from patent publication US20240189318A1, “THERAPEUTIC REGIMENS OF AN INHIBITOR OF THE ENZYMATIC ACTIVITY OF BRG1 AND BRM” (FOGHORN THERAPEUTICS INC., priority 2021, published 2024).

On to `COC[C@H](NC(=O)c1ccn(S(C)(=O)=O)c1)C(=O)Nc1nc(-c2cccc(N3C[C@@H](C)O[C@@H](C)C3)n2)cs1` [compound of formula (I), N-((S)-1-((4-(6-(cis-2,6-dimethylmorpholino)pyridin-2-yl)thiazol-2-yl)amino)-3-methoxy-1-oxopropan-2-yl)-1-(methylsulfonyl)-1H-pyrrole-3-carboxamide], for which the “mRNA Fold Change Relative to the Vehicle Control” value with CYP2C19 mRNA is 1.04 ± 0.14; in the series on CYP2C8 mRNA (0.3 nM) it was 0.93 ± 0.21; in the series on CYP2C8 mRNA (10 nM), 0.42 ± 0.15. Besides, the “Enzyme Activity Fold Change Relative to the Vehicle Control” value in the series on CYP3A activity was found to be 0.93 ± 0.15.
